Experimental data published in the Kinase Knowledgebase extract (Sharma et al. 2016).

Amino acid sequences for entries named in this document (tags omitted).
UniProt P00533, whole entry, looked up: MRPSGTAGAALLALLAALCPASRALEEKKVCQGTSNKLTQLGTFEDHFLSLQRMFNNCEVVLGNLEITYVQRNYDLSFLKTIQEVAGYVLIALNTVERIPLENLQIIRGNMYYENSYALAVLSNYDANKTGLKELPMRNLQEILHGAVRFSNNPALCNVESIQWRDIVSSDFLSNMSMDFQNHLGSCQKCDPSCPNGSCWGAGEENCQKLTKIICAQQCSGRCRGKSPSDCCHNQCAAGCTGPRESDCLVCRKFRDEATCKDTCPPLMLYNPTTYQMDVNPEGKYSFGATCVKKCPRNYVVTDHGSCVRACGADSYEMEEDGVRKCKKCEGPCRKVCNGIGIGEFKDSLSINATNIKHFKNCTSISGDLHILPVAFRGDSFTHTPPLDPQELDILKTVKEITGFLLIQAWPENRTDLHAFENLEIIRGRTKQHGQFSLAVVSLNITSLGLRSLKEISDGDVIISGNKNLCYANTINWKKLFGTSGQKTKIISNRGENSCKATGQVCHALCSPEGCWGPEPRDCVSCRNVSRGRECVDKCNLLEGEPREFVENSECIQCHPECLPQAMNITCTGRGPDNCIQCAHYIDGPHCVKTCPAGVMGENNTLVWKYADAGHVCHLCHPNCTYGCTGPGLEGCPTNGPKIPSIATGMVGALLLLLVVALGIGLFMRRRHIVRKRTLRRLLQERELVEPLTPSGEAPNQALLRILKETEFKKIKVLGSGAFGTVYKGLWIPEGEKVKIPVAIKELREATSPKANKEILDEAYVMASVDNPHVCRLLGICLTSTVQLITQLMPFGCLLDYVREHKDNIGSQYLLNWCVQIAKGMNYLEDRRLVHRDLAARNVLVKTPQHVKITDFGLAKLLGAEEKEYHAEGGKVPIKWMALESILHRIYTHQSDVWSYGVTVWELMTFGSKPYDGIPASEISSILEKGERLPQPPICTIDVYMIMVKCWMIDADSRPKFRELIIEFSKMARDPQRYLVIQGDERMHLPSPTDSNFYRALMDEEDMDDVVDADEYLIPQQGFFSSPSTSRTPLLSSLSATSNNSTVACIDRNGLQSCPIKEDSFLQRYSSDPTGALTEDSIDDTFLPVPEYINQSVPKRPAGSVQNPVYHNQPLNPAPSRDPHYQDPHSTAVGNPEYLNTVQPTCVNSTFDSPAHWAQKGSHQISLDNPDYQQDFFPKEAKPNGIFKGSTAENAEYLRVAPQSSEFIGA

Biological target: EGFR (UniProt P00533)
Test: Inhibition of EGFR Kinase Activity

Structure (SMILES)	IC50 [nM]
COc1cc2ncnc(Nc3cccc(F)c3)c2cc1OC	3.8
COc1cc2ncnc(Nc3cccc(Cl)c3)c2cc1OC	0.3
